Literature values, collected in patent US10301355B2, “Method of using pharmaceutical compositions comprising selective peptide-based agonists of melanocortin 1 receptor” (University of Cincinnati, priority 2012, dated 2019).

Conditions: caused by activation of MC3R and MC4R; cited from earlier work

melanotan II [MT-II, reference compound]
off-target effects: sexual arousal and spontaneous erections lasting for 1-5 hours, nausea, grade II somnolence, fatigue, stretching, yawning, and loss of appetite
